# Antibody variant affinities, Ab-14 heavy chain, assay 1

All variants were tested on one target, the spike HR2 peptide PDVDLGDISGINAS (SARS-CoV-2).

Each scFv is VH, three GGGGS repeats, VL, as in the parent Ab-14, and differs from it in the CDRs of the heavy chain only.
VH: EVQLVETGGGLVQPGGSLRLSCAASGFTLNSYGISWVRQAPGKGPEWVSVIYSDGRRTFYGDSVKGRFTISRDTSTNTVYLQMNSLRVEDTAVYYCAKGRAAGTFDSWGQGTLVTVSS
VL: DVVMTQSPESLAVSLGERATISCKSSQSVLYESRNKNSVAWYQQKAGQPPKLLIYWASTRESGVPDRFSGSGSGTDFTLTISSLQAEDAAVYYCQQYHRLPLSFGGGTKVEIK

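The starting antibody came from a phage panning campaign against this peptide. AAYL49 was designed without a model: most single CDR substitutions and a random sample of double and triple ones. The scFvs were displayed on barcoded MATa yeast, the peptide on MATalpha yeast. The frequency of each diploid, read from paired DNA barcodes, reflects how well the two displayed proteins bind. Each replicate has its own calibration line, from reference interactions of the BCL2 family. Mating was done three times.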

Each variant is given by its three heavy chain CDRs, as the data file delimits them; those of the parent are GFTLNSYGIS, VIYSDGRRTFYGDSVK, GRAAGTFDS. This list gathers variants with a substitution at A102 (VH, numbered from residue 1). Kd is apparent (estimated from mating counts) and averaged on the log scale over replicates with a signal. Smaller is tighter. "no signal" means that the variant was in the library but no mating with the target was seen in any replicate; the authors take this as a sign of poor binding, and no number exists.

CDR-H1,CDR-H2,CDR-H3,Kd (apparent),detected
GFTLNSYGIS,VIYSTGRRTFYGDSVK,ARADGTFDS,no signal,0/3
GFTLNFYGIS,VIYSDGRRTFYGDEVK,GRACGTFDS,no signal,0/3
GFTLNSYGIS,VIYSDGRRTGHGDSVK,GRASGTFDS,no signal,0/3
GFTLNSYGIS,VIYSDGRRTFYGDSVK,GRAEGKFDS,28 µM,2/3
GFTLVSYGIS,VIYSDGRRTFYGDHVK,GRAGGTFDS,no signal,0/3
GFTLNSYGIS,VIYSDGRRTFPGDSVK,GRYRGTFDS,no signal,0/3
GFTLNSYCIS,VIYSSGRRTFYGDSVK,GRAWGTFDS,no signal,0/3
GFTLNSYGGS,VIYMDGRRTFYGDSVK,GRAFGTFDS,no signal,0/3
GFTLNSYGIS,VCYSDGRRTFYGDSVK,GRATGTFDS,no signal,0/3
GFTLNSYGIS,VIYSDGRRTFYADSVK,GRADGTFQS,7.4 nM,3/3
PITLNSYGIS,VIYSDGRRTFYGDSVK,GRATGTFDS,no signal,0/3
GFTLNSYGIS,VIYSDGRRTFYGDSVK,GRAKGTFDS,7.9 µM,2/3
GFTLNSYGIS,VIYVDGRRTFYGDSIK,GRASGTFDS,no signal,0/3
GFTLNSYGIS,VIYSDGRRLFYGDSVK,GRATGTDDS,8.5 µM,2/3

In this assay the parent's reference entry averaged 4.4 nM; its copy inside this library read 13 µM (one replicate of three). As a blank, each scFv also met three strains without target: over library AAYL49, 15% of these pairings were detected, typically at 11 µM and seldom below 680 nM.

The measurements come from Engelhart et al. 2022 (doi:10.1038/s41597-022-01779-4) through the FLAb antibody collection.